The text below walks through data of PMC2901986 (Nature, 2010).

Chains of the proteins cited; added tags and fusions are not shown. Residues count along the entry.
UniProt P00519, 46-515 E505K: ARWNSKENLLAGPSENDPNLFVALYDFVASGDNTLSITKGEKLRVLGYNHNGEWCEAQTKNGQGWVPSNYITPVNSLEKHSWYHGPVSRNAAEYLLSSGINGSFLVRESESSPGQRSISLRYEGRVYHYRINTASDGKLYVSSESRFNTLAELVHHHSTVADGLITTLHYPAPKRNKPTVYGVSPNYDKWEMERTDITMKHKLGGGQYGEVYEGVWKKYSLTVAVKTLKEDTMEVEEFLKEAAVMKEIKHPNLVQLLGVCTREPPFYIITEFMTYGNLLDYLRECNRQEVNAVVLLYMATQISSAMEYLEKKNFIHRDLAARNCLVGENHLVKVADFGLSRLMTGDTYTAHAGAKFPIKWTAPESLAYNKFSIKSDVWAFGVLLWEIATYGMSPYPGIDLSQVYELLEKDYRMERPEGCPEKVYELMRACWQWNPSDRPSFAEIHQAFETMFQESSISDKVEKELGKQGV
UniProt P00519, 46-515: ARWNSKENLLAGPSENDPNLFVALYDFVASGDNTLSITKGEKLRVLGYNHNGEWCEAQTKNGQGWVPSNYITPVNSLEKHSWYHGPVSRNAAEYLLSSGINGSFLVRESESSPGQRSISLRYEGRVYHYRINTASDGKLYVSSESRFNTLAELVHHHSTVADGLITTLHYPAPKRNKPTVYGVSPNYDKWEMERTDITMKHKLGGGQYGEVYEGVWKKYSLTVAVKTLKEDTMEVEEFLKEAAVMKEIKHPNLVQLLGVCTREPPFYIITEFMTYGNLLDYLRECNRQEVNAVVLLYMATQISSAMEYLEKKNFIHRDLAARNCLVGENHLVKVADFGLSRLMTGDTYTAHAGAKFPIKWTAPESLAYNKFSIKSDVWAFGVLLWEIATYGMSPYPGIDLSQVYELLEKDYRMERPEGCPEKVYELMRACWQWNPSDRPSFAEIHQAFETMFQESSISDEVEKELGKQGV

In one assay the target is E505K Abl kinase (Homo sapiens, UniProt P00519, E505K). The assay is described as follows: ATP/NADH-coupled Abl kinase assay, E505K. In kind it is biochemical. Particulars: read-out: IC50, E505K Abl; ATP concentration of 20 µM.
For the next assay, the target named is wild-type Abl kinase (Homo sapiens, UniProt P00519).

The IC50 is the midpoint of a concentration-inhibition curve. By EC50 is commonly meant the concentration giving half of the maximal effect. On to `O=C(NCCO)c1cccc(-c2cc(Nc3ccc(OC(F)(F)F)cc3)ncn2)c1` [GNF-5], for which the half-inhibitory concentration (IC50) was over 10000 nM at E505K Abl kinase and 220 ± 10 nM at wild-type Abl kinase (read-out: IC50, wild-type Abl, ATP concentration of 20 µM). At wild-type Abl kinase (read-out: estimated EC50, Fig. S9d), the EC50 is 169 nM.
